The values below are quoted from earlier work in publication PMC5779092 (Biochemistry, 2017).

The target of the data set is BPTF bromodomain (5FW-BPTF) (Homo sapiens, UniProt Q12830). The following applies: BPTF bromodomain inhibitor, recently reported; cited from earlier work.

As for `COC(=O)c1cccc(NC(=O)NC2CCN(c3ccnc(Nc4ccc(F)cc4)n3)C2)c1` (stereo not shown) [AU1], the Kd (commonly the concentration at which binding is half-saturated) is 2800 nM.
